# Screening data as filed in PubChem BioAssay.
# Compounds with a hit are over-represented: about 16% of the library has one in this group of screens.
# TDP1 block = inhibitors of human tyrosyl-DNA phosphodiesterase TDP1 | Q9NUW8 | recombinant TDP1, AlphaScreen DNA substrate cleavage | Potency, µM (highest dose often 130 µM), for inactives: at the top dose activity change, negative = inhibition, most hits filed as inhibitors | 350,000 tested, 0.28% active | AID 485290; also: potency is read from the fitted curve at half-maximal effect; % is scaled to controls: 0 for no effect and ±100 for the full control effect; nearly all actives have a fitted effect of over 40% in size
#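 Compounds were preincubated with Tdp1 (1 nM final) for 15 min at room temperature before substrate (15 nM final) started a 5 min reaction; beads (10 ug/ml final) were then added for 10 min before AlphaScreen detection.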
# miR-21 reporter = miR-21 reporter, rising signal; HeLa miR-21 FLuc reporter, luciferase, 48 h; Potency, µM (doses to about 38.3 µM), for inactives: at the highest dose reporter change, positive = more light; 340,000 tested, under 10 active; AID 2288; active = well fitted rising curve with a large enough effect; inconclusive = small, poorly fitted or top-dose-only effect; inactive = no such curve, though single readings can be large or run the other way;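 further: % of control where 0% means no effect; miR-21 action dims this reporter so a rising signal means less miR-21 action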
#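 Using DMEM plus 10% FBS, HeLa miR-21-FLuc cells are incubated with test compounds (final up to about 40uM) for 48 hours; firefly luciferase signal is then imaged following reagent-mediated lysis.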
# TDP1 cell noCPT = qHTS for Inhibitors of human tyrosyl-DNA phosphodiesterase 1 (TDP1): qHTS in cells in absence of CPT | AID 686978, 2013 | Potency, µM (titrated, usually from 46.2 µM), for the others: at the top dose activity change, negative = growth inhibition, hits mostly inhibitors | 420,000 tested, 15% active | DT40 Tdp1-/- hTDP1 cells, no CPT, ATP luminescence, 48 h; also: potency is read from the fitted curve at half-maximal effect; % is scaled to controls: 0 for no effect and ±100 for the full control effect; nearly all actives have a fitted effect of over 55% in size
#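 Cells were dispensed at 400 per well, compounds added by pin tool, plates incubated ≥48 hr at 37 °C, then CellTiter-Glo added for 30 min at room temperature before luminescence reading. Line: DT40 Tdp1-/- complemented with hTDP1; camptothecin omitted.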
# uPA generation = blocks generation of uPA at the cell surface; cell surface uPA generation assay, qHTS; 330,000 tested, 0.31% active; Potency, µM (series often up to 38.3 µM), for the others: at the top dose activity change, negative = inhibition, hits mostly inhibitors; active = well fitted inhibition curve with a large enough effect; inconclusive = small, poorly fitted or top-dose-only effect; inactive = no such curve, though single readings can be large or run the other way; tested in mouse RAW 264.7 cells; also: potency is read from the fitted curve at half-maximal effect; % is scaled to controls: 0 for no effect and ±100 for the full control effect; nearly all actives have a fitted effect of over 55% in size
# TDP1 cell CPT = DT40-hTDP1 cell growth loss with CPT; chicken DT40 Tdp1-/-;hTDP1 cells + 20 nM CPT, ATP luminescence, 48 h; Potency, µM (series often up to 46.2 µM), for the others: top-dose activity change, negative = growth inhibition, most hits filed as inhibitors; 420,000 tested, 12% active; AID 686979; also: potency is read from the fitted curve at half-maximal effect; % is scaled to controls: 0 for no effect and ±100 for the full control effect; nearly all actives have a fitted effect of over 55% in size
#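 Chicken DT40 Tdp1-/- cells stably complemented with human TDP1 were seeded at 400 cells/well in medium containing 20 nM camptothecin, exposed to pin-transferred compounds, and grown at 37 °C for at least 48 hr. Viability was read as ATP luminescence.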
# Numbers without * were called inactive; ? = inconclusive; · = no result given; [ ] = another dose, or the depositor's remark. Unless noted, calls follow the shape of the dose curve; as a rule, active = well fitted curve in the direction sought with a large enough effect; inconclusive = small, poorly fitted or top-dose-only effect, or another doubt; inactive = no such curve, though single readings can be large; an effect the other way counts as inactive or inconclusive.
1	CCCc1c(Cc2cccc(F)c2)ncn1Cc1cccc(-c2ccccc2)c1
2	CCCOc1ccc(OC(=O)c2sc3ncn(Cc4cccc(F)c4)c(=O)c3c2C)cc1
3	CCc1c(-c2cccc(OC)c2)ncn1Cc1cccc(-c2ccccc2)c1
4	O=C(Nc1ccccc1Cl)NC1(C(=O)N2CCCC2)CCCCC1
5	C=C(C)CSC1=C(C#N)C(c2ccccc2Cl)CC(=O)N1 (centres undefined)
6	COC(=O)c1ccccc1NC(=O)c1nc(SCc2ccccc2C)ncc1Cl
7	COc1cc2c(cc1O)CCC1C2CC[C@]2(C)[C@@H](O)CC[C@@H]12 (some centres undefined)
8	CCOc1cc2c(cc1O)C(=NOC)CC1C2CCC2(C)C(O)CCC12 (centres undefined)
9	COc1ccc(C2Nc3ccccc3C(=O)N2Cc2ccco2)cc1COc1ccc(F)cc1 (centres undefined)
10	COc1ccc(C2Nc3ccccc3C(=O)N2Cc2ccco2)cc1OC (centres undefined)
assay / compound | 1 | 2 | 3 | 4 | 5 | 6 | 7 | 8 | 9 | 10
TDP1 cell CPT | 3.26µM* | ? | 6.51µM* | 1.7% | -10.4% | 5.2% | · | 0.92µM* | ? | 8.91µM*
miR-21 reporter | · | -1.1% | · | -7.5% | -11.0% | 4.9% | · | · | 12.5% | ·
TDP1 cell noCPT | 3.66µM* | ? | 8.2µM* | 1.3% | ? | 0.6% | · | 0.82µM* | ? | 22.4µM*
uPA generation | · | · | · | -0.4% | -2.4% | · | · | -12.8% | -1.0% | ·
TDP1 block | · | 0.0% | · | -2.5% | 7.4% | 4.7% | 8.5%[56.1 µM] | · | -4.9% | 5.9%

11	CCOc1cc(C2Nc3ccccc3C(=O)N2Cc2ccco2)ccc1OCc1ccccc1Cl (centres undefined)
12	COc1ccc2c(c1OC)C(=O)N1c3ccccc3C(=O)N(Cc3ccco3)C21 (centres undefined)
13	O=C1c2ccccc2NC(c2ccc3c(c2)OCO3)N1Cc1ccco1 (centres undefined)
14	O=C1c2ccccc2NC(c2cc(Br)c3c(c2)OCO3)N1Cc1ccco1 (centres undefined)
15	CS(=O)(=O)c1cccc(C(=O)OCC(=O)Nc2ccc3c(c2)OCO3)c1
16	CCCCN(C)C(=O)c1sc(=O)n(Cc2ccccc2F)c1C
17	CC[n+]1c(-c2ccc(C)cc2)csc1Nc1c(C)n(C)n(-c2ccccc2)c1=O
18	Cc1ccc(N2C(=O)C(Cl)=C(Nc3c(C)n(C)n(-c4ccccc4)c3=O)C2=O)cc1
19	Cc1cccc(C(=O)c2cnc3ccccc3c2-c2ccccc2)c1
20	O=S(=O)(c1c(Cl)cc(Br)cc1Cl)N1CCN(C(=S)NC2CC2)CC1
assay / compound | 11 | 12 | 13 | 14 | 15 | 16 | 17 | 18 | 19 | 20
TDP1 cell CPT | 10µM* | 10µM* | ? | ? | -0.8% | -27.0% | 14.6µM* | ? | 14.6µM* | ?
miR-21 reporter | · | · | · | · | · | · | 16.5% | -5.0% | 13.8% | ·
TDP1 cell noCPT | 3.55µM* | 20µM* | ? | 17.8µM* | -9.8% | ? | 11.6µM* | 13µM* | 25.9µM* | ?
uPA generation | · | · | · | · | 5.5% | · | -3.5% | -8.7% | 3.2% | -5.4%
TDP1 block | 0.4% | -0.2% | 2.1% | 5.0% | 1.3% | · | 7.9% | 2.8% | 5.1% | 1.3%

21	COc1ccc(C2Nc3ccc(NC(C)=O)cc3C(=O)N2Cc2cccc(Cl)c2)cc1COc1ccc(NC(C)=O)cc1 (centres undefined)
22	COc1ccc(C2Nc3ccc(NC(=O)CO)cc3C(=O)N2Cc2cccc(Cl)c2)cc1COc1ccc(NC(C)=O)cc1 (centres undefined)
23	COc1ccc(C2Nc3ccc(Cl)cc3C(=O)N2Cc2ccccc2)cc1COc1ccc(NC(C)=O)cc1 (centres undefined)
24	CSc1nnc(NC(=O)Cc2coc3cc(C)ccc23)s1
25	COCCn1c(SCC(=O)Nc2cccc(S(N)(=O)=O)c2)nc2cc(Cl)ccc2c1=O
26	COc1ccc(NC(=O)CSc2nc(-c3ccco3)nc3cc(=O)[nH]n23)cc1Cl
27	O=C(CSc1nc2c(oc3ccccc32)c(=O)n1Cc1ccco1)Nc1cccc(Cl)c1
28	COCCn1c(SCC(=O)Nc2cccnc2Cl)nc2cc(Cl)ccc2c1=O
29	CCn1c(SCC(=O)Nc2cccc(C)c2)nc2nc3c(cc2c1=O)COC(C)(C)C3
30	CCOc1ccccc1CN1CCNC(=O)C1CC(=O)N(C)CCC1CCOCC1 (centres undefined)
assay / compound | 21 | 22 | 23 | 24 | 25 | 26 | 27 | 28 | 29 | 30
TDP1 cell CPT | 12.6µM* | ? | · | -3.8% | 14.6µM* | -2.6% | ? | 6.2% | 25.9µM* | -13.3%
miR-21 reporter | · | · | · | -33.4% | 5.3% | -2.8% | -0.2% | · | 6.4% | 0.0%
TDP1 cell noCPT | 10µM* | 11.2µM* | · | ? | 18.4µM* | 0.5% | 20.6µM* | -20.5% | 18.4µM* | 8.0%
uPA generation | · | · | · | · | -0.9% | -7.8% | · | 13.9% | 2.3% | -0.2%
TDP1 block | -4.9% | -8.7% | -13.6% | 8.6% | 5.0% | 50.1µM* | -2.0% | -0.9%[56.1 µM] | 7.7% | 1.7%

31	COc1ccc(NC(=O)CSc2nc3c(oc4ccccc43)c(=O)n2Cc2ccco2)cc1Cl
32	Cc1cccc(NC(=O)CSc2nc3c(oc4ccccc43)c(=O)n2Cc2ccco2)c1
33	Cc1ccc(-n2c(SCC(=O)Nc3cccc(S(N)(=O)=O)c3)nc3ccccc32)cc1
34	COCCn1c(SCC(=O)Nc2ccc(F)cc2)nc2c(oc3ccccc32)c1=O
35	COCCn1c(SCC(=O)Nc2ccc(F)c(Cl)c2)nc2c(oc3ccccc32)c1=O
36	COc1cccc(NC(=O)CSc2nc3c(oc4ccccc43)c(=O)n2Cc2ccco2)c1
37	Cc1noc(C)c1CSc1nnc2n(-c3ccccc3)c(=O)c3ccccc3n12
38	C=CCn1c(SCc2c(C)noc2C)nc2cc(C(=O)O)ccc2c1=O
39	Cc1noc(C)c1CSc1nc2ccccc2c(=O)n1-c1ccccc1
40	C=CCn1c(SCc2c(C)noc2C)nc2ccccc2c1=O
assay / compound | 31 | 32 | 33 | 34 | 35 | 36 | 37 | 38 | 39 | 40
TDP1 cell CPT | ? | 23.1µM* | 18.4µM* | 24.6% | 5.17µM* | 9.2µM* | ? | ? | 6.51µM* | 0.562µM*
miR-21 reporter | -3.7% | 2.7% | 18.0% | -1.5% | -14.1% | -0.1% | · | 0.4% | 7.4% | 23.2%
TDP1 cell noCPT | 20.6µM* | 16.4µM* | ? | -13.3% | ? | 9.2µM* | -7.7% | ? | 5.8µM* | 0.794µM*
uPA generation | · | · | -15.3% | -2.1% | · | · | -4.4% | · | ? | ·
TDP1 block | · | -4.9% | 7.9% | 0.0% | -2.9% | 7.8% | · | 3.0% | 4.0% | 5.2%

# Molecules above that have bromine:
14	O=C1c2ccccc2NC(c2cc(Br)c3c(c2)OCO3)N1Cc1ccco1 (centres undefined)
20	O=S(=O)(c1c(Cl)cc(Br)cc1Cl)N1CCN(C(=S)NC2CC2)CC1
assay / compound | 14 | 20
TDP1 cell CPT | ? | ?
miR-21 reporter | · | ·
TDP1 cell noCPT | 17.8µM* | ?
uPA generation | · | -5.4%
TDP1 block | 5.0% | 1.3%

# Pulled by compound from the entries so far (two):
13	O=C1c2ccccc2NC(c2ccc3c(c2)OCO3)N1Cc1ccco1 (centres undefined)
23	COc1ccc(C2Nc3ccc(Cl)cc3C(=O)N2Cc2ccccc2)cc1COc1ccc(NC(C)=O)cc1 (centres undefined)
assay / compound | 13 | 23
TDP1 cell CPT | ? | ·
miR-21 reporter | · | ·
TDP1 cell noCPT | ? | ·
uPA generation | · | ·
TDP1 block | 2.1% | -13.6%

# Going on with the list:
41	Cc1noc(C)c1CSc1nc2ccccc2c(=O)n1-c1ccc(F)cc1F
42	Cc1ccc(S(=O)(=O)N2CCOCC2)cc1NC(=O)CN1C(=O)CN(C)C1=O
43	COCCNC(=O)CS(=O)Cc1nc(-c2ccc(OC)cc2)oc1C (centres undefined)
44	CCN(CC)CCCC(C)Nc1cc(/C=C/c2ccccc2Cl)nc2cc(Cl)ccc12 (centres undefined)
assay / compound | 41 | 42 | 43 | 44
TDP1 cell CPT | 8.2µM* | 2.0% | 15.5% | 0.631µM*
miR-21 reporter | 14.2% | · | -6.6% | ·
TDP1 cell noCPT | 7.31µM* | 5.0% | 6.8% | 0.891µM*
uPA generation | -16.7% | 1.7% | -6.7% | ·
TDP1 block | 4.5% | -2.9% | 5.2% | -0.2%
